This test concerns the target LC3B (recombinant, BLI) (human, UniProt Q9GZQ8 1-120). Kind of test: BLI.

From PMC6499816 (2019) come the findings set out here.

What is called Kd is the concentration at which binding is half-saturated.

On to NISQKSDEEDFVIVEDLPLKLTIY (biotin (position not given)) [PCM1 K1957I LIR peptide (BLI)], for which the equilibrium dissociation constant (Kd) amounted to 10.3 µM.
